According to PMC8291497 (ACS Chemical Biology, 2021):

Assays:
[1] = biological target: T1, PARM-pWT (364-570; R455K, C483A, C501A, Y524W, C566A) (Homo sapiens, UniProt Q99767, C483A/C501A/C566A/R455K/Y524W); test: Stopped flow binding kinetics, APP A-to-E variants to PARM-pWT
T1 construct: PARM-pWT (364-570;); made in house; host or cells: semisynthesis, three-segment approach (expressed fragments plus synthetic segment)
T1 sequence (Q99767 364-570 R455K/C483A/C501A/Y524W/C566A): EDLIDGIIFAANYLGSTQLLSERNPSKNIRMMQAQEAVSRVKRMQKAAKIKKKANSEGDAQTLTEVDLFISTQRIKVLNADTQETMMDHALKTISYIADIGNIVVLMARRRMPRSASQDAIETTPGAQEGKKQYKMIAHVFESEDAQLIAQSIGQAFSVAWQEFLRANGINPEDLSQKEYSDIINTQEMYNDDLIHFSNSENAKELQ
Method: (§1) Kinetic binding rate constants were obtained using an upgraded SX17 stopped flow spectrometer (Applied Photophysics), and all experiments were conducted at 25 °C in 500 mM NaCl and 25 mM HEPES (pH 7.4). The relatively high NaCl concentration was used to improve the solubility of the proteins. The change in tryptophan fluorescence was measured using a band-pass filter (excitation at 280 nm and emission at 330 ± 30 nm) when mixing varying concentrations (2–50 μM) of the dansyl peptides with 1 μM protein or 0.5 μM semisynthetic proteins. […] For PTB variants, we used the kobs value from the fast kinetic phase for the analysis. […] We report the errors in kon and koff from the curve fitting. […] For these koff determinations, we report the standard error of the mean of three replicates. Φ values were defined as ΔΔGTS/ΔΔGeq, where ΔΔGTS = RT ln(kon^WT/kon^mut.) and ΔΔGeq = RT ln(Kd^mut./Keq^WT). Calculated coupling free energies were defined as ΔΔΔGEq = RT ln(Kd^mut.:WTKd^WT:mut./Kd^WT:WTKd^mut.:mut.) or ΔΔΔGTS = RT ln(kon^WT:WTkon^mut.:mut./kon^mut.:WTkon^WT:mut.) as previously described.[27] Propagated errors are reported.

[2] = biological target: T2, Mint2 PARM 364-570 (Y524W), pWT PARM (PTB domain and ARM linker) (Homo sapiens, UniProt Q99767, Y524W); test: Stopped flow binding kinetics, APP peptides to PARM (pseudo-wild type)
T2 construct: PARM domain (residues 364–570, i.e., PTB and the ARM linker) containing the Y524W mutation; made in house; host or cells: Escherichia coli BL21(DE3)pLysS
T2 sequence (Q99767 364-570 Y524W): T1 sequence (Q99767 364-570 R455K/C483A/C501A/Y524W/C566A) with K92R, A120C, A138C, A203C
Method: as §1

[3] = biological target: T3, Mint2 PTB 364-538 (without the ARM linker) (Homo sapiens, UniProt Q99767, Y524W); test: Stopped flow binding kinetics, APP peptides to PTB
T3 construct: PTB without the ARM linker (residues 364–538); made in house; host or cells: Escherichia coli BL21(DE3)pLysS
T3 sequence (Q99767 364-538 Y524W): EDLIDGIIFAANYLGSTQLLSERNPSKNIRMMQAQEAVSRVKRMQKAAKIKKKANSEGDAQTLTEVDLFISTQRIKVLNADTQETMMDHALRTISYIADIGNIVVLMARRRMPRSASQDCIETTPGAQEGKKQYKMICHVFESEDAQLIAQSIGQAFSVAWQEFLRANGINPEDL
Method: as §1

Mint2 PARMWT 364-570 = Mint2 PARMWT 364-570 (Homo sapiens, UniProt Q99767); test: biochemical
[4] = biological target: Mint2 PARM 364-570 (Y524W) (Homo sapiens, UniProt Q99767, Y524W); test: biochemical
[5] = biological target: T4, Mint2 PARM 364-570 (Y524W, Y543A) (Homo sapiens, UniProt Q99767, Y524W/Y543A); test: biochemical
T4 sequence (Q99767 364-570 Y524W/Y543A): T1 sequence (Q99767 364-570 R455K/C483A/C501A/Y524W/C566A) with K92R, A120C, A138C, Y180A, A203C

[6] = biological target: T5, Mint2 PARM 364-570 (Y524W, Y543E) (Homo sapiens, UniProt Q99767, Y524W/Y543E); test: biochemical
T5 sequence (Q99767 364-570 Y524W/Y543E): T1 sequence (Q99767 364-570 R455K/C483A/C501A/Y524W/C566A) with K92R, A120C, A138C, Y180E, A203C

Mint2 PTB 364-538 = Mint2 PTB 364-538 (Homo sapiens, UniProt Q99767, Y524W); test: biochemical
[7] = biological target: T4, Mint2 PARM 364-570 (Y524W, Y543A); test: Stopped flow binding kinetics, APP peptides to PARM^Y543A; parameters: PARM domain (residues 364–570, i.e., PTB and the ARM linker); made in house; host or cells: Escherichia coli BL21(DE3)pLysS
Method: as §1

[8] = biological target: T5, Mint2 PARM 364-570 (Y524W, Y543E); test: Stopped flow binding kinetics, APP peptides to PARM^Y543E; parameters: PARM domain (residues 364–570, i.e., PTB and the ARM linker); made in house; host or cells: Escherichia coli BL21(DE3)pLysS
Method: as §1

PTB/PARM = test: ITC
[9] = biological target: PARM-pWT (semisynthetic human Mint2 364-570; R455K, C483A, C501A, Y524W, C566A) (human) (UniProt Q99767); test: stopped-flow fluorescence kinetics
[10] = biological target: PARM-pWT Y459ψ (amide-to-ester variant of semisynthetic human Mint2 364-570) (human) (UniProt Q99767); test: stopped-flow fluorescence kinetics
[11] = biological target: PARM, pseudo-wild type (human Mint2 364-570, Y524W) (human) (UniProt Q99767); test: fluorescence polarisation
[12] = biological target: PARM, pseudo-wild type (human Mint2 364-570, Y524W) (human) (UniProt Q99767); test: stopped-flow fluorescence kinetics
[13] = biological target: PARM^Y543A (human Mint2 364-570, Y524W, Y543A) (human) (UniProt Q99767); test: stopped-flow fluorescence kinetics
[14] = biological target: PARM^Y543E (human Mint2 364-570, Y524W, Y543E) (human) (UniProt Q99767); test: stopped-flow fluorescence kinetics
[15] = biological target: PTB (human Mint2 PTB domain without the ARM linker, residues 364-538, Y524W) (human) (UniProt Q99767); test: stopped-flow fluorescence kinetics

Molecule | Kd [2] [µM] | Kd [3] [µM] | Ki (Mint2 PARMWT 364-570) [µM] | Ki [4] [µM] | Ki [5] [µM] | Ki [6] [µM] | Ki (Mint2 PTB 364-538) [µM] | Kd [7] [µM] | Kd [8] [µM] | also measured
C[C@@H](O)[C@H](NC(=O)[C@@H]1CCCN1C(=O)[C@H](CC(N)=O)NC(=O)[C@H](CCC(=O)O)OC(=O)[C@H](Cc1ccc(O)cc1)NC(=O)CNC(=O)[C@H](CC(N)=O)NC(=O)CNC(=O)[C@H](CC(N)=O)NC(=O)[C@H](CC(N)=O)NS(=O)(=O)c1cccc2c(N(C)C)cccc12)C(=O)N[C@@H](Cc1ccc(O)cc1)C(=O)N[C@@H](CCCCN)C(=O)N[C@@H](Cc1ccccc1)C(=O)N[C@@H](Cc1ccccc1)C(=O)N[C@@H](CCC(=O)O)C(=O)O [Peptide E758ε] |  |  |  |  |  |  |  |  |  | Kd [1]: 33 µM
C[C@H](NC(=O)[C@H](CCCCN)NC(=O)[C@H](Cc1ccc(O)cc1)NC(=O)[C@@H](NC(=O)[C@@H]1CCCN1C(=O)[C@H](CC(N)=O)NC(=O)[C@H](CCC(=O)O)NC(=O)[C@H](Cc1ccc(O)cc1)NC(=O)CNC(=O)[C@H](CC(N)=O)NC(=O)CNC(=O)[C@H](CC(N)=O)NC(=O)[C@H](CC(N)=O)NS(=O)(=O)c1cccc2c(N(C)C)cccc12)[C@@H](C)O)C(=O)N[C@@H](Cc1ccccc1)C(=O)N[C@@H](CCC(=O)O)C(=O)O [Peptide F764A] | 66 ± 8 | 3.7 | 88 ± 4 | 63 ± 11 | 18 ± 3 | 23 ± 0.6 | 5.6 | 27 ± 0.6 | 26 ± 1 | 
C[C@H](NC(=O)[C@H](Cc1ccccc1)NC(=O)[C@H](CCCCN)NC(=O)[C@H](Cc1ccc(O)cc1)NC(=O)[C@@H](NC(=O)[C@@H]1CCCN1C(=O)[C@H](CC(N)=O)NC(=O)[C@H](CCC(=O)O)NC(=O)[C@H](Cc1ccc(O)cc1)NC(=O)CNC(=O)[C@H](CC(N)=O)NC(=O)CNC(=O)[C@H](CC(N)=O)NC(=O)[C@H](CC(N)=O)NS(=O)(=O)c1cccc2c(N(C)C)cccc12)[C@@H](C)O)C(=O)N[C@@H](CCC(=O)O)C(=O)O [Peptide F765A] | 62 ± 5 | 3.4 | 89 ± 5 | 68 ± 3 | 24 ± 0.8 | 18 ± 0.6 | 6.4 | 31 ± 2 | 33 ± 2 | 
C[C@@H](O)[C@H](NC(=O)[C@@H]1CCCN1C(=O)[C@H](CC(N)=O)NC(=O)[C@H](CCC(=O)O)NC(=O)[C@H](Cc1ccc(O)cc1)NC(=O)CNC(=O)[C@H](CC(N)=O)NC(=O)CNC(=O)[C@H](CC(N)=O)NC(=O)[C@H](CC(N)=O)NS(=O)(=O)c1cccc2c(N(C)C)cccc12)C(=O)N[C@@H](Cc1ccc(O)cc1)C(=O)N[C@@H](CCCCN)C(=O)N[C@@H](Cc1ccccc1)C(=O)NCC(=O)N[C@@H](CCC(=O)O)C(=O)O [Peptide F765G] | 81 ± 6 | 4.2 | 92 ± 6 | 88 ± 7 | 28 ± 0.5 | 21 ± 0.3 | 7.5 | 47 ± 5 | 43 ± 3 | 
C[C@H](NC(=O)[C@H](Cc1ccc(O)cc1)NC(=O)[C@@H](NC(=O)[C@@H]1CCCN1C(=O)[C@H](CC(N)=O)NC(=O)[C@H](CCC(=O)O)NC(=O)[C@H](Cc1ccc(O)cc1)NC(=O)CNC(=O)[C@H](CC(N)=O)NC(=O)CNC(=O)[C@H](CC(N)=O)NC(=O)[C@H](CC(N)=O)NS(=O)(=O)c1cccc2c(N(C)C)cccc12)[C@@H](C)O)C(=O)N[C@@H](Cc1ccccc1)C(=O)N[C@@H](Cc1ccccc1)C(=O)N[C@@H](CCC(=O)O)C(=O)O [Peptide K763A] | 6.7 | 0.53 | 9.7 | 6.6 | 2.5 | 2.7 |  | 2.2 | 3.2 | 
C[C@@H](O)[C@H](NC(=O)[C@@H]1CCCN1C(=O)[C@H](CC(N)=O)NC(=O)[C@H](CCC(=O)O)NC(=O)[C@H](Cc1ccccc1)NC(=O)CNC(=O)[C@H](CC(N)=O)NC(=O)CNC(=O)[C@H](CC(N)=O)NC(=O)[C@H](CC(N)=O)NS(=O)(=O)c1cccc2c(N(C)C)cccc12)C(=O)N[C@@H](Cc1ccc(O)cc1)C(=O)N[C@@H](CCCCN)C(=O)N[C@@H](Cc1ccccc1)C(=O)N[C@@H](Cc1ccccc1)C(=O)N[C@@H](CCC(=O)O)C(=O)O [Peptide Y757F] | 11 ± 0.6 |  | 13 ± 1 | 9.5 | 4.4 | 3.1 | 1.4 | 4.3 | 5.2 | 
APP^WT (…) (peptide) |  |  |  |  |  |  |  |  |  | stoichiometry N (PTB/PARM): 0.9 and 1.1
Dansyl-APP^E758ε (Dansyl-NNG-NGYεNPTYKFFE), amide-to-ester variant (peptide) |  |  |  |  |  |  |  |  |  | koff [9]: 18.1 s⁻¹; kon [9]: 560000 M⁻¹ s⁻¹
Dansyl-APP^N759ν (Dansyl-NNG-NGYEνPTYKFFE), amide-to-ester variant (peptide) |  |  |  |  |  |  |  |  |  | koff [9]: 14.6 s⁻¹; kon [9]: 600000 M⁻¹ s⁻¹; koff [10]: 40 s⁻¹; kon [10]: 570000 M⁻¹ s⁻¹
dansyl-APP^Y762pY (dansyl-NNG-NGYENPTpYKFFE) (peptide) |  |  |  |  |  |  |  |  |  | Ki [11]: 320 µM; Kd [12]: 302 µM; koff [12]: 99 s⁻¹; kon [12]: 330000 M⁻¹ s⁻¹; koff [13]: 91 s⁻¹; kon [13]: 900000 M⁻¹ s⁻¹; koff [14]: 91 s⁻¹; kon [14]: 1e+06 M⁻¹ s⁻¹; koff [15]: 111 s⁻¹; kon [15]: 1.4e+07 M⁻¹ s⁻¹

Residue numbers refer to the chain shown, from its start. Several values for one entry are separate records, joined by “and”; a condition that tells them apart may be missing. Identical values can stand only once.
